The values that follow are results of earlier work, collected in PubChem BioAssay AID1811 (Shanghai Institute of Organic Chemistry, 2009).

The list shows a part of the results. Activity calls are given as the source filed them. Where no limit is named, active and inactive come without a cut-off here.

The data set deals with trypsinogen. Kind of data set: PubChem AID 1811. The note with it: PDB complex binding affinities from literature.

Take `NCCCCc1ccccc1`: the call was active.
